We go through 3 compounds from PubChem BioAssay AID738 (SRMLSC, 2007).

Only a part is listed here, and it is no random draw. Some of these compounds have results that are not shown, active ones among them. Calls of active or inactive are those of the source. No stated cut-off is given here; in the data, active means inhibition above about 30%; inactive means the rest.

The nature of this assay: yeast control strain growth suppression – counter-screen for post-Golgi transport modulator project, primary screen (AID 738). The conditions noted are these: efflux-deficient yeast background strain, growth absorbance A615, 16 h; at 10 µM; hits give high values. In general terms: The purpose of a counterscreen is to sort out artefacts and off-target activity.
`CC(C)N1C(=O)CC2(CCN(CCOC(=O)C(O)(c3ccccc3)c3ccccc3)CC2)C1=O`: the inhibition (commonly the drop in the measured response relative to a control, in per cent) is inactive: 2.56%. The figure for `O=C(OC1CN2CCC1CC2)C(CO)(c1ccccc1)c1ccccc1` (stereo not drawn) is inactive: 2.25%.

As to `CN(C)c1cccc(C(=O)NCC2(N(C)C)CCCCC2)c1`, the inhibition is inactive: -0.16%.
